# AlphaSeq binding of Ab-95 light chain variants to a spike HR2 peptide

The target is the same throughout: PDVDLGDISGINAS, from the HR2 region of SARS-CoV-2 spike.

Parent scFv Ab-95: VH joined to VL by a (GGGGS)3 linker. Changes lie in the light chain CDRs alone.
VH: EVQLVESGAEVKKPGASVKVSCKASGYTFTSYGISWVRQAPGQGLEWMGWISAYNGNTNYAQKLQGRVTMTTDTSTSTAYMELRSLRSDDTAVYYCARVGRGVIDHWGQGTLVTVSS
VL: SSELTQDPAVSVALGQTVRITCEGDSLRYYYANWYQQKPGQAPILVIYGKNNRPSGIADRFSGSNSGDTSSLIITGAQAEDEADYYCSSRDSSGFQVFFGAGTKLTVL

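Library AAYL52 holds single substitutions and randomly drawn double and triple substitutions in the CDRs. AlphaSeq pools MATa yeast showing the antibodies with MATalpha yeast showing the peptide. After mating in shaken culture at 30 °C for 16 h, diploids were selected and their barcode pairs sequenced. Each replicate has its own calibration line, from reference interactions of the BCL2 family. Mating was done three times.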

Each variant is given by its three light chain CDRs, as the data file delimits them; those of the parent are EGDSLRYYYAN, GKNNRPS, SSRDSSGFQVF. All variants listed here change S92 of the VL, counted from its first residue. Affinities are written as log10 Kd with Kd in nM; a lower number is a better binder. A mean of the replicates is given; it leaves out those without a signal. "nd" means that the variant was in the library but no mating with the target was seen in any replicate; the authors take this as a sign of poor binding, and no number exists. As a blank, each scFv also met three strains without target: over library AAYL52, 28% of these pairings were detected, typically at 3.91 and seldom below 2.90. Also given: how often the same scFv was detected with the empty control strains.

- EGDSLSYYYAN, GKNNRPS, SSRDMSGFQVI = 2.62 (3 of 3 replicates; controls 2 of 9)
- EDDSLRYYYAN, GKNNRPS, SSRDPSGFQVF = 2.94 (3 of 3 replicates; controls 5 of 9)
- EGDSLLYYYAN, GMNNRPS, SSRDESGFQVF = 3.07 (3 of 3 replicates; controls 4 of 9)
- EGDSLKYYYAN, GKNNRPS, STRDCSGFQVF = 3.53 (3 of 3 replicates; controls 2 of 9)
- EGDSLRYYYAN, GKNERPS, SDRDLSGFQVF = 2.81 (3 of 3 replicates; controls 4 of 9)
- EADSLSYYYAN, GKNNRPS, SSRDMSGFQVF = 4.11 (3 of 3 replicates; controls 1 of 9)
- ELDSLRYYYAN, GKNNRPS, SYRDVSGFQVF = 2.27 (1 of 3 replicates; controls 0 of 9)
- EGDSLRYYYAN, GKNNRPS, SSVDASGFQFF = 1.87 (3 of 3 replicates; controls 3 of 9)
- EGDSLFYLYAN, GKNNRPS, SSRDFSGFQVF = 4.00 (2 of 3 replicates; controls 3 of 9)
- EGDSLRIYYAN, GKNNRPW, SSRDYSGFQVF = 1.74 (3 of 3 replicates; controls 4 of 9)
- PGDSLRYYYAN, GKNNRPQ, SSRDMSGFQVF = 2.16 (3 of 3 replicates; controls 3 of 9)
- EGDDLRYYYAN, GKNNRPS, SWRDGSGFQVF = 5.21 (1 of 3 replicates; controls 2 of 9)
- EGDSLRYYYAN, GKNNRPE, SSRDYSGFQVF = 1.72 (3 of 3 replicates; controls 3 of 9)
- EGDSLRTYYAN, GKNNRPS, SGRDISGFQVF = 2.30 (3 of 3 replicates; controls 1 of 9)
- EGDSLRYYYAN, WKGNRPS, SSRDDSGFQVF = 4.47 (1 of 3 replicates; controls 2 of 9)
- EGDSLPYYYAN, GKNNRPS, RSRDYSGFQVF = 3.48 (2 of 3 replicates; controls 2 of 9)
- EGDYLRYYYAN, GKNNRPS, SSRDCSGFGVF = 4.13 (1 of 3 replicates; controls 1 of 9)
- EGDMWRYYYAN, GKNNRPS, SSRDTSGFQVF = nd (0 of 3 replicates; controls 0 of 9)
- EGDSLRYYYAN, GTNNRPS, QSRDESGFQVF = 4.31 (2 of 3 replicates; controls 3 of 9)
- EGDSLRYYYAN, GKNNRPS, CSQDLSGFQVF = nd (0 of 3 replicates; controls 4 of 9)
- HGDSLWYYYAN, GKNNRPS, SSRDFSGFQVF = nd (0 of 3 replicates; controls 1 of 9)
- EGDMLRYYYAN, GKNNRPS, SMRDFSGFQVF = 3.19 (3 of 3 replicates; controls 2 of 9)
- WGDSLRYYYAN, GKNNRPS, SSPDFSGFQVF = 4.02 (2 of 3 replicates; controls 2 of 9)
- EGDSLRYYYAN, GKNNRPT, SSRDPSGFQVF = 2.34 (3 of 3 replicates; controls 2 of 9)
- EGDSLRYYYHN, GKNNRPT, SSRDESGFQVF = 3.86 (1 of 3 replicates; controls 1 of 9)
- EGDSLRYYYAN, GKNNRPS, WARDVSGFQVF = nd (0 of 3 replicates; controls 1 of 9)
- EGMSLRYYYAN, GKNNRPS, SSRDESGFQVF = 2.27 (3 of 3 replicates; controls 1 of 9)
- EGDSLRKYYAN, GKNNRPS, KSRDHSGFQVF = 3.85 (3 of 3 replicates; controls 5 of 9)
- EGDDLRYYYAN, GKNNRPS, SSRDGSGYQVF = 3.41 (3 of 3 replicates; controls 1 of 9)
- EGDSLRYGYAN, GKNNRPS, SSRDPSGIQVF = 2.66 (3 of 3 replicates; controls 0 of 9)
- EGDSLVYYYAN, GANNRPS, SSRDWSGFQVF = 3.93 (2 of 3 replicates; controls 0 of 9)
- EGDDLRYYYAE, GKNNRPS, SSRDFSGFQVF = nd (0 of 3 replicates; controls 2 of 9)
- EGDSLRYYYAN, MKNNRPS, SSRDASGFQWF = nd (0 of 3 replicates; controls 2 of 9)
- EGDSLRDYYAN, GKNNRPS, SSRDFAGFQVF = 2.36 (3 of 3 replicates; controls 1 of 9)
- SGWSLRYYYAN, GKNNRPS, SSRDRSGFQVF = 3.28 (2 of 3 replicates; controls 0 of 9)
- EGDSLRYYYAN, GKNNRPS, SSRDVSGFQNF = 2.70 (3 of 3 replicates; controls 1 of 9)
- EGDSLRYYNAN, GKNWRPS, SSRDISGFQVF = 1.44 (3 of 3 replicates; controls 1 of 9)
- EGDSLRYYYAN, GENNRPS, LSRDISGFQVF = 4.13 (3 of 3 replicates; controls 1 of 9)
- ELDSLRYYYAN, GKNNRAS, SSRDCSGFQVF = 3.39 (1 of 3 replicates; controls 1 of 9)
- EGDSYRYYYAN, GKNNRPS, SSRAKSGFQVF = nd (0 of 3 replicates; controls 4 of 9)
- EGDSLRYYYAN, GKNNRPS, SYRDWSGFQVF = 2.27 (3 of 3 replicates; controls 5 of 9)
- EGDSLRYYYAN, GKNNRPS, SSRDHSGFQKL = 4.42 (2 of 3 replicates; controls 3 of 9)
- EGDSLRYYYAN, FKNNRGS, SSRDFSGFQVF = 2.77 (1 of 3 replicates; controls 1 of 9)
- EGDSLRYYYAN, GKQNRHS, SSRDQSGFQVF = 3.25 (1 of 3 replicates; controls 0 of 9)
- EGDYLRYYRAN, GKNNRPS, SSRDMSGFQVF = 3.21 (2 of 3 replicates; controls 1 of 9)
- EGDSLRPYYAN, GKNNRPS, SSRDNAGFQVF = nd (0 of 3 replicates; controls 1 of 9)
- EGDSLRYYYAN, GKNNRYS, SSRDQSGFRVF = 3.32 (1 of 3 replicates; controls 2 of 9)
- EGDSLRYYYAN, GKNNRPS, SMRDYSGFQVF = 3.13 (3 of 3 replicates; controls 3 of 9)
- EGDSLRYYYAN, GKNNRPS, SSRDISGIVVF = nd (0 of 3 replicates; controls 1 of 9)
- EGDSARYYYAN, LKNNRPS, SSRDQSGFQVF = 2.76 (1 of 3 replicates; controls 2 of 9)
- EGDSLRYYYAY, GKNNRPS, SSRDTSEFQVF = 4.03 (2 of 3 replicates; controls 6 of 9)
- EGDSLRDYYAN, GKNNRMS, SSRDISGFQVF = 2.48 (3 of 3 replicates; controls 5 of 9)

The closing 7 entries, repeated:

{"CDR-L1": "EGDSLRPYYAN", "CDR-L2": "GKNNRPS", "CDR-L3": "SSRDNAGFQVF", "mean log10 Kd (nM)": "nd", "seen in": "0 of 3", "empty controls": "1 of 9"}
{"CDR-L1": "EGDSLRYYYAN", "CDR-L2": "GKNNRYS", "CDR-L3": "SSRDQSGFRVF", "mean log10 Kd (nM)": "3.32", "seen in": "1 of 3", "empty controls": "2 of 9"}
{"CDR-L1": "EGDSLRYYYAN", "CDR-L2": "GKNNRPS", "CDR-L3": "SMRDYSGFQVF", "mean log10 Kd (nM)": "3.13", "seen in": "3 of 3", "empty controls": "3 of 9"}
{"CDR-L1": "EGDSLRYYYAN", "CDR-L2": "GKNNRPS", "CDR-L3": "SSRDISGIVVF", "mean log10 Kd (nM)": "nd", "seen in": "0 of 3", "empty controls": "1 of 9"}
{"CDR-L1": "EGDSARYYYAN", "CDR-L2": "LKNNRPS", "CDR-L3": "SSRDQSGFQVF", "mean log10 Kd (nM)": "2.76", "seen in": "1 of 3", "empty controls": "2 of 9"}
{"CDR-L1": "EGDSLRYYYAY", "CDR-L2": "GKNNRPS", "CDR-L3": "SSRDTSEFQVF", "mean log10 Kd (nM)": "4.03", "seen in": "2 of 3", "empty controls": "6 of 9"}
{"CDR-L1": "EGDSLRDYYAN", "CDR-L2": "GKNNRMS", "CDR-L3": "SSRDISGFQVF", "mean log10 Kd (nM)": "2.48", "seen in": "3 of 3", "empty controls": "5 of 9"}

Values reported by Engelhart et al. 2022, doi:10.1038/s41597-022-01779-4 (FLAb copy).